Measured values reported in patent publication US5278174A, “Sigma binding site agents” (priority 1991, dated 1994).

Sequences of proteins named here, by UniProt entry; tags and fusion partners are left off.
UniProt Q60492, whole entry: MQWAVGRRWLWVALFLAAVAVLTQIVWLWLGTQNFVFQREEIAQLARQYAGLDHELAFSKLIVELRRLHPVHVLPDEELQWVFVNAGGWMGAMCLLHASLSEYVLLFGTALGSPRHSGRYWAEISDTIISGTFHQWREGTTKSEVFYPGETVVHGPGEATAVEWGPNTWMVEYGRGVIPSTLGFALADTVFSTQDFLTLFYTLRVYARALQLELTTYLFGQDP

Molecular target: T1, sigma sites (Cavia porcellus, UniProt Q60492)
T1 construct: Frozen whole guinea pig brains; tissue Pel-Freez, Rogers, Ariz; host or cells: whole guinea pig brain membranes
Assay: Sigma receptor binding assay, [3H](+)-3-PPP
Conditions: 4 nM [3H](+)-3-PPP; guinea pig whole brain; room temperature, 45 minutes; read-out: Receptor Potency Sigma PPP (IC50, nMol)

- pIC50: 6.50
SMILES: OC(CCCN1CCN(c2ncc(F)cn2)CC1)c1ccc(F)cc1 (stereo not shown) [BMY14802, reference compound]

pIC50: −log10 of the molar value.
